Source: PubChem (several laboratories)
Hits are enriched below; roughly 2.3% of the tested compounds scored in any of these assays.
MC4R ag barr: activates human MC4R beta-arrestin recruitment. U2OS MC4R beta-arrestin complementation, luminescence; percent of melanotan II response, DMSO zero. activation, % at 8.9 µM. actives 0.98% (n = 360,000). AID 540308;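 active = activation above a per-plate cutoff, the mean activation of sample wells on that plate plus 3 SD, cut at about 8% in these data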
ASAP1 inh: ASAP1 ArfGAP inhibition | Q9ULH1 | ASAP1-stimulated ARF1 GTP hydrolysis, GDP FP detection | inhibition, % at 16.5 µM | actives 0.19% (n = 360,000); in the data active = inhibition above about 25%;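 note: 0% = vehicle with enzyme and substrate and 100% = no enzyme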
MC4R antag cAMP: human MC4R antagonism in cAMP assay; P32245; AID 540295; MC4R-expressing cells, MTII-stimulated cAMP, LANCE TR-FRET; actives 0.48% (n = 360,000); inhibition, % at 6.5 µM;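 active = inhibition above its plate's cutoff, the mean of tested wells on that plate plus 3 SD, cut at about 29% in these data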;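 note: 0% = Melanotan II alone and 100% = Melanotan II plus saturating MCL0020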
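Test system: U2OS cells stably expressing human melanocortin 4 receptor (MC4R); also added: Melanotan II challenge; compound: 6.5 µM single dose; timing: 30-min compound preincubation, 1-h Melanotan II challenge, 1-h detection, room temperature; signal: Eu-cAMP/anti-cAMP TR-FRET, emission 671 nm; repeats: one well per compound, no replicates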
UUG fidelity: alters start codon recognition fidelity in yeast. S. cerevisiae UUG-firefly luciferase reporter, luminescence/redox ratio. activity score, % at 18.7 µM. 0.13% of 350,000 active. AID 602363;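 active = replicate mean at a twofold rise or more, about +100% in these data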;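 also: firefly luciferase made from a UUG start codon reports start codon fidelity; reporter light over untreated wells divided by growth signal over untreated wells; some hits fall short of that in this replicate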
ARFGAP1 inh: inhibits rat ARF GTPase activating protein 1 | inhibition, % at 16.5 µM | Arfgap1-stimulated ARF1 GTP hydrolysis, GDP FP detection | Q62848 | actives 0.26% (n = 360,000);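 active = inhibition above a per-plate limit, mean inhibition of low control wells plus 3 SD, cut at about 25% in these data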;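 note: 0% = DMSO wells with enzyme and 100% = wells lacking Arfgap1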
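Replicates: Single well per compound | Assay system: Truncated rat Arfgap1 GAP domain | Control set: No-Arfgap1 wells (100%) versus DMSO full-reaction wells (0%) | Times: Enzyme reaction 120 min at 25 °C after 20 min preincubation | Reagent: Human ARF1(Δ1-17)-GTP substrate | Measured by: Tracer-displacement fluorescence polarization with EDTA stop, 620/688 nm | Measure: Percent inhibition of Arfgap1-stimulated GTP hydrolysis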
NRP1-CendR mod: NRP-1/CendR interaction modulation; O14786; FAM-RPARPAR peptide binding to NRP-1, fluorescence polarization; inhibition, % at 25 µM; actives 0.85% (n = 360,000); AID 602438;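 active = inhibition or corrected inhibition above about 18%, plus a signal ratio from 0.5 to 1.5, limit read from the data, passing the limit was not always enough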
ARFGAP1 inh conf: rat ARFGAP1 inhibition, confirmed. shares compounds with ARFGAP1 inh. ARFGAP1-stimulated ARF1 GTP hydrolysis, GDP tracer FP. inhibition, % at 16.5 µM. actives 30% (n = 890);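 active = average inhibition over triplicates above the hit cutoff set in the earlier primary screen, cut at about 25% in these data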;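 note: 0% = Arfgap1 plus ARF1-GTP with DMSO and 100% = wells lacking Arfgap1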
Numbers without * were called inactive; . = no result given.

The line under a structure holds: MC4R ag barr, ASAP1 inh, MC4R antag cAMP, UUG fidelity, ARFGAP1 inh, NRP1-CendR mod, ARFGAP1 inh conf
CN1CCN(C(=O)C[C@@H]2C[C@H]3c4cc(NC(=O)CC5CC5)ccc4O[C@H]3[C@H](CO)O2)CC1
  ., ., ., 0, ., ., .
COc1ccc(S(=O)(=O)N2CCCCCC2)cc1N(C)S(=O)(=O)c1ccccc1
  -3, 10, 5, ., 26*, -8, 1
COc1ccc(N(C(=O)c2ccco2)C(C(=O)NC2CCCC2)c2cccnc2)c(OC)c1 (stereo unspecified)
  0, -7, 3, -20, 26*, 10, 8
COc1ccc(N(C(=O)c2ccco2)C(C(=O)NC2CCCC2)c2ccc(C)cc2)c(OC)c1 (stereo unspecified)
  -1, 0, 6, -9, 6, 3, .
CS(=O)(=O)Nc1ccc2c(c1)[C@@H]1C[C@@H](CC(=O)NCC(F)(F)F)O[C@H](CO)[C@@H]1O2
  ., ., ., 6, ., ., .
Nc1ccc2cc3[nH]c4cc(N)ccc4c3nc2c1
  -2, 11, -10, ., 46*, 140, 73*
C[C@H]1CN([C@@H](C)CO)C(=O)c2cccc(NC(=O)C3CC3)c2O[C@H]1CN(C)C(=O)Nc1ccc(C(F)(F)F)cc1
  ., ., ., 11, ., ., .
CC1(C)Cc2ccccc2-c2nnc(SCC(=O)N3CCc4ccccc43)n21
  -2, 22, 13, -12, 27*, -9, 24
COC(=O)CSc1nnc2n1C(C)(C)Cc1ccccc1-2
  -1, 6, 6, -10, 5, 0, .
O=C(Nc1cccc(F)c1)N1C[C@H]2[C@@H](c3ccccc31)[C@@H](CO)N2C(=O)c1ccccc1F
  ., ., ., 17, ., ., .
CCNC(=O)NC(=O)C(C)Sc1nc2cc(C(=O)OC)ccc2c(=O)n1-c1ccccc1 (stereo unspecified)
  -1, -1, 3, 4, 27*, 0, 6
CCNC(=O)NC(=O)C(C)Sc1nc2ccccc2c(=O)n1-c1cccnc1 (stereo unspecified)
  0, 2, 3, 0, 4, 10, .
CCN(CC)CCOC(=O)c1ccc(N/C=C(/C#N)c2nc(-c3ccc4c(c3)OCO4)cs2)cc1
  1, 8, -3, -3, 32*, -90, 73*
Cc1cc(=O)oc(C)c1C(=O)N1CCN(C)CC1
  -2, 13, 10, -14, 25*, 11, -1
CCSCCOC(=O)C1=C(C)NC(=O)NC1c1cccc(OC)c1OC (stereo unspecified)
  0, 1, 7, 10, 26*, -8, 1
CC(C)NC(=O)Nc1ccc2c(c1)C(=O)N([C@@H](C)CO)C[C@H](C)[C@H](CN(C)S(=O)(=O)c1cn(C)cn1)OCCCC[C@@H](C)O2
  ., ., ., 14, ., ., .
CCNc1nc(-c2sc(NC(=O)C(C)(C)C)nc2C)c(-n2cc(-c3ccccc3)nn2)s1
  ., 10, ., ., 32*, 13, 3
COc1cc([N+](=O)[O-])ccc1NC(=O)COC(=O)c1ccc(NC(N)=O)cc1
  2, 14, 8, ., 29*, 8, 20
COc1cc(NC(=O)c2cc3ccccc3o2)ccc1NC(=O)c1ccco1
  2, -1, 7, -2, 27*, 0, 11
COc1cc(NC(=O)c2c(OC)cccc2OC)ccc1NC(=O)c1cc2ccccc2o1
  0, 11, 6, -16, 12, 5, .
COCC(=O)Nc1ccc([N+](=O)[O-])cc1OC
  -3, -1, 12, ., -5, -9, .
COc1cc(NC(=O)COc2ccc([N+](=O)[O-])cc2)ccc1NC(=O)c1ccco1
  -1, 12, -4, -19, 58*, -8, 75*
COc1cc(NC(=O)COc2ccccc2[N+](=O)[O-])ccc1NC(=O)c1ccco1
  -4, 0, 2, -2, 6, -12, .
COc1ccc(S(=O)(=O)N[C@@H]2CC[C@H](CC(=O)NCCc3ccncc3)O[C@@H]2CO)cc1
  ., ., ., -9, ., ., .
Cn1c(=O)c2c(nc(SCc3cccnc3)n2Cc2ccccc2)n(C)c1=O
  0, -10, -4, -6, 26*, 7, 6

Pulled by compound from the list above:
The line under a structure holds: MC4R ag barr, ASAP1 inh, MC4R antag cAMP, UUG fidelity, ARFGAP1 inh, NRP1-CendR mod, ARFGAP1 inh conf
COc1cc(NC(=O)COc2ccccc2[N+](=O)[O-])ccc1NC(=O)c1ccco1
  -4, 0, 2, -2, 6, -12, .
COCC(=O)Nc1ccc([N+](=O)[O-])cc1OC
  -3, -1, 12, ., -5, -9, .
COc1ccc(S(=O)(=O)N[C@@H]2CC[C@H](CC(=O)NCCc3ccncc3)O[C@@H]2CO)cc1
  ., ., ., -9, ., ., .
